Values joined by “and” are separate entries in the source; they are usually repeats but may differ in a detail not shown here. Equal entries are not always repeated. The entries are a selection whose mix differs from that of the whole data set. Some of these compounds have results that are not shown, active ones among them. Active and inactive are the calls of the source.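 How the source made its calls: active means potentiation over 3 SD above the plate norm (cut at about 30% in these data); inactive means the rest.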

Chains of the proteins cited; added tags and fusions are not shown.
UniProt P14416, whole entry: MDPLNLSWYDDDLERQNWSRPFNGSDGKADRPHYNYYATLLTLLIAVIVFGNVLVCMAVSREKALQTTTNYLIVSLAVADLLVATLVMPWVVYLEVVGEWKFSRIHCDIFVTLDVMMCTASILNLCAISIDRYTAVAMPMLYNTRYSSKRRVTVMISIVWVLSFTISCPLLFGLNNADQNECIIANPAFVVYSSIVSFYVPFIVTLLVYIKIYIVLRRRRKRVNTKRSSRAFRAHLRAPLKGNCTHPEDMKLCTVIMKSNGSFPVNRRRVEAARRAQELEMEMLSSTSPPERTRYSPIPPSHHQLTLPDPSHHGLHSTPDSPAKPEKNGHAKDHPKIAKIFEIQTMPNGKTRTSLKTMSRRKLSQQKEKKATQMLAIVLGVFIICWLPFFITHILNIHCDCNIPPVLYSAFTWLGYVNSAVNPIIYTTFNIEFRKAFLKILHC

The test deals with D(2) dopamine receptor (Homo sapiens) (UniProt P14416). The experiment in a line: HTS Assay for Positive Allosteric Modulators of the Human D2 Dopamine Receptor: Primary Screen for Potentiators. Further: 0% is about no effect. Particulars: HEK293 T-REx D2, calcium flux, EC20 dopamine potentiation; at 10 µM; active compounds read high. An excerpt:
NIH Chemical Genomics Center [NCGC] NIH Molecular Libraries Probe Centers Network [MLPCN] MLPCN Grant: NS064831-01 Assay Submitter (PI): David Sibley Dopamine receptors (DARs) are involved in the etiology and/or therapy of a number of neuropsychiatric and endocrine disorders. For instance, all receptor-based antiparkinsonian drugs work via stimulating the D2 DAR subtype whereas all FDA-approved antipsychotic agents are antagonists of this receptor. […] There are three different types of allosteric modulators that we are seeking, two of which will stimulate or augment receptor signaling, allosteric agonists and potentiators, while the third, allosteric antagonists, will attenuate receptor signaling. The present primary screening assay measures compound potentiation of an EC20 dopamine response by tracking calcium flux in a […], inducible Hek293 Trex D2 cell line.
Freshly passaged cells are plated in 1536 well black, clear bottom plates at a density of 4000 cells/well in 3 ul of complete media containing 1x tetracycline inducer. After an overnight incubation at 30 C in 5% CO2, cells are loaded with 2 ul of the no wash Calcium Assay Kit (ABD Bioquest) and incubated at room temperature for 30 to 90 minutes. A 10 cycle (1 second/cycle) baseline measurement is taken and then the FDSS online 1536 pintool delivers 23 nl of compound library (as well as dopamine controls) to the plate. The plate is measured for kinetically at 1 cycle/sec for 180 seconds and is considered to be the agonist portion of the assay (eg, compounds which activate a positive calcium response during this portion are flagged as potential agonists). Following the 180 second read, 1 ul of an EC20 of dopamine is delivered by an onboard pipette head. Measurements are taken kinetically for an additional 180 seconds.
(Calcium flux is commonly read through the fluorescence of an indicator in the cells.)
With `CN(C)C1(CNC(=O)c2ccc(Br)cc2)CCCCC1`, the potentiation is inactive: -27.1%.

For the compound `COc1cc(C(=O)NCC2(N(C)C)CCCCC2)c([N+](=O)[O-])cc1OC`, the potentiation was inactive: -8.65%.

`COc1ccc(Cl)cc1C(=O)NCC1(N(C)C)CCCCC1`: the potentiation was inactive: -25.3%.

`COc1cccc(C(=O)NCC2(N3CCCCC3)CCCCC2)c1`: the potentiation was inactive: -5.63%.

For `COc1ccc(C(=O)NCC2(N(C)C)CCCCC2)cc1Cl`, the potentiation was inactive: -0.156%.

With `O=C(NCC1(N2CCCCC2)CCCCC1)c1cccc(Cl)c1`, the potentiation is inactive: -12.2%.

For `COc1cccc(C(=O)NCC2(N3CCOCC3)CCCCC2)c1`, the potentiation was inactive: -22.1%.

For the compound `CC(C)COc1ccc(C(=O)NCC2(N(C)C)CCCCC2)cc1`, the potentiation is inactive: -12.4%.

For the compound `COc1ccc(Br)c(C(=O)NCC2(N3CCCCC3)CCCCC2)c1`, the potentiation is inactive: 9.39%.

Consider `Cc1cccc(C(=O)NCC2(N(C)C)CCCCC2)c1`, for which the potentiation is inactive: 7.27%.

For the compound `COc1cc(C(=O)NCC2(N(C)C)CCCCC2)cc(OC)c1OC`, the potentiation was inactive: -21.9%.

On to `CC(C)Oc1ccc(C(=O)NCC2(N(C)C)CCCCC2)cc1`, for which the potentiation is inactive: -13.3% and inactive: 2.39%.

On to `CN(C)c1cccc(C(=O)NCC2(N(C)C)CCCCC2)c1`, for which the potentiation was inactive: -14.8%.

As to `O=C(NCC1(N2CCCCC2)CCCCC1)c1cc([N+](=O)[O-])ccc1Cl`, the potentiation was inactive: 4.02%.

In the case of `CN1[C@@H]2CC[C@H]1CC(OC(=O)C(O)(c1ccccc1)c1ccccc1)C2` (stereo partly drawn), the potentiation was inactive: -2.68%.

Regarding `COc1cc(SC)ccc1C(=O)NCC1(N(C)C)CCCCC1`, the potentiation was inactive: -19.5%.

With `CCN(CC)CC(C)C(C)OC(=O)C(O)(c1ccccc1)c1ccccc1` (stereo not drawn), the potentiation was inactive: 3.56%.

In the case of `CN(C)C1(CNC(=O)c2cccc(Cl)c2)CCCCC1`, the potentiation was inactive: -27%.

Turning to `CC(C)N1C(=O)CC2(CCN(CCOC(=O)C(O)(c3ccccc3)c3ccccc3)CC2)C1=O`, the potentiation was inactive: 6.79%.

In the case of `Cc1ccc(C(=O)NCC2(N3CCCCC3)CCCCC2)cc1`, the potentiation is inactive: -20.7%.

For `CN(C)C1(CNC(=O)c2ccccc2F)CCCCC1`, the potentiation was inactive: -8.4%.

Consider `CN(C)C1CCCC1OC(=O)C(O)(c1ccccc1)c1ccccc1` (stereo not drawn), for which the potentiation was inactive: 7.87%.

Regarding `CN(C)c1ccc(C(=O)NCC2(N(C)C)CCCCC2)cc1`, the potentiation was inactive: -16.8%.

As to `CN(C)C1(CNC(=O)c2ccccc2[N+](=O)[O-])CCCCC1`, the potentiation was inactive: -6.16%.

In the case of `Cc1ccccc1C(=O)NCC1(N2CCCCC2)CCCCC1`, the potentiation is inactive: -3.41%.

For `CCCCOc1ccccc1C(=O)NCC1(N(C)C)CCCCC1`, the potentiation is inactive: -2.27%.

`O=C(NCC1(N2CCCCC2)CCCCC1)c1cc(F)c(F)cc1Cl`: the potentiation is inactive: -3.97%.

As for `C=CCN1CCN(CCOC(=O)C(O)(c2ccccc2)c2ccccc2)CC1`, the potentiation was inactive: -12.8%.

`CCOc1cccc(C(=O)NCC2(N(C)C)CCCCC2)c1`: the potentiation is inactive: -24.1%.

As for `COc1ccc(C(=O)NCC2(N(C)C)CCCCC2)cc1`, the potentiation is inactive: 4.44%.

As for `O=C(NCC1(N2CCCCC2)CCCCC1)c1cccc(Br)c1`, the potentiation is inactive: -9.6%.

In the case of `Cc1cc(C(=O)NCC2(N3CCCCC3)CCCCC2)ccc1[N+](=O)[O-]`, the potentiation was inactive: 5.67%.

Take `CCN1CCCC(OC(=O)C2(O)c3ccccc3C=Cc3ccccc32)C1` (stereo not drawn): the potentiation is inactive: -10.4%.
